Key:
Format in all cases: cell-based
Conditions in all cases: 24 h
SOS1 protein [1] = target: T1, SOS1 protein (Homo sapiens, UniProt Q07889); assay: SOS1 degradation assay (Western blot), A-427 cells; set-up: host or cells: A-427 (human cancer cell lines)
T1 sequence (Q07889 1-1333): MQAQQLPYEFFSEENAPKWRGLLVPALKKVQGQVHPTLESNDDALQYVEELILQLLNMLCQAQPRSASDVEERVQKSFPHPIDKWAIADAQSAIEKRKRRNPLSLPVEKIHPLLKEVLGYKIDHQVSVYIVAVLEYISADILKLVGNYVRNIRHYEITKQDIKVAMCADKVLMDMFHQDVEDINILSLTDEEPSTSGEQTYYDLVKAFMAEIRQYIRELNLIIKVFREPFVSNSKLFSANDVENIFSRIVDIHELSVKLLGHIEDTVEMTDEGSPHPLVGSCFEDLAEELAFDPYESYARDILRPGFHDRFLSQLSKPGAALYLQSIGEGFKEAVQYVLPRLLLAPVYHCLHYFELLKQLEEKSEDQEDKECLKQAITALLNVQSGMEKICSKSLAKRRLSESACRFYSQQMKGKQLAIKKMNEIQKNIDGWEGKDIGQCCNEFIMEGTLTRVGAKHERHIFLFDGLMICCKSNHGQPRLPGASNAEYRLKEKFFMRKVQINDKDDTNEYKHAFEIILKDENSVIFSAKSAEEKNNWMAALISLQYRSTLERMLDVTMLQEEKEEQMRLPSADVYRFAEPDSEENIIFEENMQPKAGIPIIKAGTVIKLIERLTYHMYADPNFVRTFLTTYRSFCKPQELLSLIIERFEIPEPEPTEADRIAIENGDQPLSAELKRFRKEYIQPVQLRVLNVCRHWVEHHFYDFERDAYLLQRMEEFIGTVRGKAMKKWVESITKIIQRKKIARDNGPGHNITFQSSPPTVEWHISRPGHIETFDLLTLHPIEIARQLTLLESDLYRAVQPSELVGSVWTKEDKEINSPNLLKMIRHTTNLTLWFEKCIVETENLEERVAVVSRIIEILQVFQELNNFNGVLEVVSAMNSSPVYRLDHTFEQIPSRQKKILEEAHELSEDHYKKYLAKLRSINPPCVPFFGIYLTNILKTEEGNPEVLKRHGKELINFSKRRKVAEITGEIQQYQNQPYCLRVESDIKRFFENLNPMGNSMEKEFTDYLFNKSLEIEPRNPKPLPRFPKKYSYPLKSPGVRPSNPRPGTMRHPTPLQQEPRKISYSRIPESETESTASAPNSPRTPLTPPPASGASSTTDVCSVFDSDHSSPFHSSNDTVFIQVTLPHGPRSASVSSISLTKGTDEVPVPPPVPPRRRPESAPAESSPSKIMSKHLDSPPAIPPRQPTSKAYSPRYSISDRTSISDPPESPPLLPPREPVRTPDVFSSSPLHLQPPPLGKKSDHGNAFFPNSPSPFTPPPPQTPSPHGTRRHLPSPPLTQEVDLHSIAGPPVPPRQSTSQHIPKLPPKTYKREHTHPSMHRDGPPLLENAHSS
Method: (§1) The specific procedures were as follows:
(§2) 0.95 mL of cells were seeded into each well of a 24-well cell culture plate to achieve a cell density of 5×10^5 cells/well; the cell plate was incubated in an incubator at 37° C. with 5% CO2 overnight. Then 50 μL of the compound solution after dilution was added to each of the wells with the corresponding cells, so that the final concentration of the compound was in a range of 0.03-3000 nM. […] After dosing, the cell plate was incubated in an incubator at 37° C. with 5% CO2 for 24 h. […] After the plate was left to stand on ice for 30 min, the protein lysate in each well was transferred to a 1.5 mL centrifuge tube and centrifuged at 15000 g for 20 min at 4° C. The cell lysate supernatant after centrifugation was cryopreserved at −80° C. for testing and was used for determining the degradation level of the SOS1 protein by a WB method. The concentration of total protein in the cell lysate supernatant was determined using the BCA Protein Quantification Kit (Tiangen, PA115-02).
(§3) The concentration of total protein in the cell lysate was determined by BCA. […] Then the degradation rate was calculated by comparing the gray correction value with the gray correction value of the control group. […]

SOS1 protein [2] = target: T1, SOS1 protein; assay: SOS1 degradation assay (Western blot), DLD-1 cells; set-up: host or cells: DLD-1 (human cancer cell lines)
Method: as §1, §2, §3

SOS1 protein [3] = target: T1, SOS1 protein; assay: SOS1 degradation assay (Western blot), SW-620 cells; set-up: host or cells: SW-620 (human cancer cell lines)
Method: as §1, §2, §3

SOS1 protein [4] = target: T1, SOS1 protein; assay: SOS1 degradation assay (Western blot), NCI-H358 cells; set-up: The degradation of SOS1 by the compounds was investigated on KRAS G12C mutant human non-small cell lung cancer cells NCI-H358; host or cells: NCI-H358 (human cancer cell lines)
Method: as §1, §2, §3

## COc1cc2nc(C)nc(N[C@H](C)c3cc(N)cc(C(F)(F)F)c3)c2cc1C1CCC(C(=O)N2CCN(CC3CCC4(CC3)CCN(C(=O)c3ccc(OC)c(N5CCC(=O)NC5=O)c3)CC4)CC2)CC1 (stereo partly drawn) [Example 20, 1-(5-(9-((4-((1R,4R)-4-(4-(((R)-1-(3-amino-5-(trifluoromethyl)phenyl)ethyl)amino)-7-methoxy-2-methylquinazolin-6-yl)cyclohexane-1-carbonyl)piperazin-1-yl)methyl)-3-azaspiro[5.5]undecane-3-carbonyl)-2-methoxyphenyl)dihydropyrimidine-2,4(1H,3H)-dione]
SOS1 protein [1]
  A427 (G12D) Dmax: A (when 80≤Dmax (%)≤100, the level was A)
SOS1 protein [1]; read-out: A427 (G12D) DC50
  DC50: < 50 nM
SOS1 protein [2]
  DLD-1 (G13D) Dmax: A (when 80≤Dmax (%)≤100, the level was A)
SOS1 protein [2]; read-out: DLD-1 (G13D) DC50
  DC50: 50 to 100 nM
SOS1 protein [3]
  SW620 (G12V) Dmax: A (when 80≤Dmax (%)≤100, the level was A)
SOS1 protein [3]; read-out: SW620 (G12V) DC50
  DC50: < 50 nM
SOS1 protein [4]
  NCI-H358 (G12C) Dmax: A (when 80≤Dmax (%)≤100, the level was A)
SOS1 protein [4]; read-out: NCI-H358 (G12C) DC50
  DC50: < 50 nM

— patent US20240261417A1, “SOS1 DEGRADING AGENT AND PREPARATION METHOD THEREFOR AND APPLICATION THEREOF” (SHANGHAI LEADINGTAC PHARMACEUTICAL CO. LTD., priority 2021, published 2024)
